Results on 22 compounds are retold here after US20090312349A1, “ANTI-INFLAMMATORY MEDICAMENTS” (priority 2004, published 2009).

Protein sequences, listed by entry. Tags and fused reporters are not part of them. Residues count along the entry.
UniProt Q16539, whole entry: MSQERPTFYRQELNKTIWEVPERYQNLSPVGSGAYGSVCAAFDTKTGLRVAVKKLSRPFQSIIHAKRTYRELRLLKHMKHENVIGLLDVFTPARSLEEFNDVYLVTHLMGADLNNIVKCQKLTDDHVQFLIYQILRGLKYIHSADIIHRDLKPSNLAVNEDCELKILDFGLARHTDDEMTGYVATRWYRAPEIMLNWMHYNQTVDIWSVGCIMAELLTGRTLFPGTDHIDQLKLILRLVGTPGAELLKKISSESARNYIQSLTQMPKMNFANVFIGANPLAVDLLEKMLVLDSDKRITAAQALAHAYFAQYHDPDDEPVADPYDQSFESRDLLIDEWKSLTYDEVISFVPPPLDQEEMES
UniProt Q16539, 1-360 isoform Q16539-2: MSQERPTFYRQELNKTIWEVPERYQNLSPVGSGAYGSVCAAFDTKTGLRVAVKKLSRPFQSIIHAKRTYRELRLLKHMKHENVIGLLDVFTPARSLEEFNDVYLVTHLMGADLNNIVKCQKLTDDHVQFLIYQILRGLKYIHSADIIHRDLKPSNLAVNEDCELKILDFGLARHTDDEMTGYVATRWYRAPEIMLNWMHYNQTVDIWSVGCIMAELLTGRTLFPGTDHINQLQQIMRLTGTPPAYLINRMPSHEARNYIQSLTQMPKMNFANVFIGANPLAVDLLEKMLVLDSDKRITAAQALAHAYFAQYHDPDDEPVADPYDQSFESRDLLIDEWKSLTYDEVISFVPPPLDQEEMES

The target of the first assay is T1, phospho p-38 alpha kinase (Homo sapiens, UniProt Q16539).
T1 construct: purchased Panvera
The assay can be described thus: P-38 alpha kinase assay (spectrophotometric, pyruvate kinase/lactate dehydrogenase coupled). The assay is classed as biochemical. To be noted: Table 3; rates at […] to 2 h. On the procedure: In this assay, the oxidation of NADH was continuously measured spectrophometrically. […] The reaction was initiated by adding ATP. The absorption at 340 nm was monitored continuously for up to 4 hours at 30° C. on Polarstar Optima plate reader (BMG). The kinase activity (reaction rate) was calculated from the slope at the time frame from 1.5 h to 2 h.
For inhibition determinations, test compounds were incubated with the reaction mixture for ˜5 min before adding ATP to start the reaction. […] IC50 values were calculated from a series of % inhibition values determined at a range of concentrations of each inhibitor using Prism to process the data and fit inhibition curves. Generally, the rates obtained at the time frame of 1.5 h to 2 h were used for these calculations.
As for `COc1cccc(NC(=O)Nc2cc(C(C)(C)C)nn2-c2cccc(CN)c2)c1` [Example 285, 1-{1-[3-(aminomethyl)phenyl]-3-t-butyl-1H-pyrazol-5-yl}-3-(3-methoxy-phenyl)urea], half-maximal inhibition (IC50) was put at 102 nM. Consider `CN(C)CCc1cccc(-n2nc(C(C)(C)C)cc2NC(=O)Nc2ccc3c(c2)OCO3)c1` [Example 300, 1-(benzo[d][1,3]dioxol-5-yl)-3-{3-t-butyl 1-(3-[2-(dimethylamino)ethyl]phenyl}-1H-pyrazol-5-yl)urea], for which the IC50 – broadly, the concentration needed to halve the response being measured – is 251 nM.

`CC(C)(C)c1cc(NC(=O)Nc2ccc3c(c2)OCO3)n(-c2cccc(CO)c2)n1` [Example 294, 1-(benzo[d][1,3]dioxol-5-yl)-3-(3-t-butyl-1-(3-(hydroxymethyl)phenyl)-1H-pyrazol-5-yl)urea] registered an IC50 of 2100 nM. Compared with the last compound, the IC50 is about 8.4-fold higher. Regarding `CC(C)(C)c1cc(NC(=O)Nc2cccc3ccccc23)n(-c2cccc(CCN3CCOCC3)c2)n1` [Example 196], the IC50 was 28 nM. With `CC(C)(C)c1cc(NC(=O)Nc2ccc3c(c2)OCO3)n(-c2cccc(C(=O)O)c2)n1` [Example 295, 3-{5-[3-(benzo[d][1,3]dioxol-5-yl)ureido]-3-t-butyl-1H-pyrazol-1-yl}benzoic acid], the IC50 is 1200 nM. This IC50 lies about 43-fold higher than the previous one. The compound `CCOC(=O)c1cccc(-n2nc(C(C)(C)C)cc2NC(=O)Nc2cccc(F)c2F)c1` [Example 291, ethyl 3-{3-t-butyl-5-[3-(2,3-difluorophenyl)ureido]-1H-pyrazol-1-yl}benzoate] gave an IC50 of 5100 nM. On the same count and under the same terms, as for `CCOC(=O)Cc1ccc(-n2nc(C(C)(C)C)cc2NC(=O)Nc2cccc(F)c2F)cc1` [Example 202, ethyl 2-(4-(3-t-butyl-5-(3-(2,3-difluorophenyl)ureido)-1H-pyrazol-1-yl)phenyl)acetate], the figure is 1900 nM.

`CN(C)C(=O)Cc1cccc(-n2nc(C(C)(C)C)cc2NC(=O)Nc2ccc3c(c2)OCO3)c1` [Example 299, 1-(benzo[d][1,3]dioxol-5-yl)-3-{3-t-butyl-1-[3-(2-(dimethylamino)-2-oxoethyl]phenyl}-1H-pyrazol-5-yl)urea] came in with an IC50 of 2300 nM. Still for that read-out and setting: the same measure for `CCOC(=O)c1cccc(-n2nc(C(C)(C)C)cc2NC(=O)Nc2ccccc2F)c1` [Example 199, ethyl 3-(3-t-butyl-5-[3-(2-fluorophenyl)ureido]-1H-pyrazol-1-yl)benzoate]: 684 nM; for `CC(C)(C)c1cc(NC(=O)Nc2ccc(Cl)cc2)n(-c2cccc(CCN3CCOCC3)c2)n1` [Example 197, 1-{3-tert-butyl-1-[3-(2-morpholinoethyl)phenyl]-1H-pyrazol-5-yl}-3-(4-chlorophenyl)urea]: 243 nM. On to `CCOC(=O)Cc1cccc(-n2nc(C(C)(C)C)cc2NC(=O)Nc2ccc3c(c2)OCO3)c1` [Example 296, ethyl 2-(3-{5-[3-(benzo[d][1,3]dioxol-5-yl)ureido]-3-t-butyl-1H-pyrazol-1-yl}phenyl)-acetate], for which it took 284 nM to reach half-maximal inhibition (IC50). Take `COc1cccc(-n2nc(C(C)(C)C)cc2NC(=O)Nc2cccc(F)c2)c1` [Example 207, 1-(3-t-butyl-1-(3-methoxyphenyl)-1H-pyrazol-5-yl)-3-(3-fluorophenyl)urea]: the IC50 is 33 nM. As to `CC(C)(C)c1cc(NC(=O)Nc2cccc(C(F)(F)F)c2)n(-c2cccc(CN)c2)n1` [Example 284, 1-{1-[3-(aminomethyl)phenyl]-3-t-butyl-1H-pyrazol-5-yl}-3-(3-(trifluoro-methyl)phenyl)urea], the IC50 stood at 1950 nM.

With `COc1cccc(-n2nc(C)cc2NC(=O)Nc2cccc(Br)c2)c1` [Example 234, 1-(3-bromophenyl)-3-(1-(3-methoxyphenyl)-3-methyl-1H-pyrazol-5-yl)urea], the IC50 stood at 11000 nM. Still for that read-out and setting: the same measure for `CC(C)(C)c1cc(NC(=O)Nc2ccc3c(c2)OCO3)n(-c2cccc(CCN)c2)n1` [Example 301, 1-{1-[3-(2-aminoethyl)phenyl]-3-t-butyl-1H-pyrazol-5-yl}-3-(benzo[d][1,3]dioxol-5-yl)urea]: 630 nM; for `CC(C)(C)c1cc(NC(=O)Nc2ccccc2F)n(-c2ccc(CC(=O)O)cc2)n1` [Example 203, 2-(4-(3-t-butyl-5-(3-(2-fluorophenyl)ureido)-1H-pyrazol-1-yl)phenyl)acetic acid]: 328 nM. `CC(C)(C)c1cc(NC(=O)Nc2ccc3c(c2)OCO3)n(-c2cccc(CC(=O)O)c2)n1` [Example 298, 2-(3-(5-[3-(benzo[1,3]dioxol-5-yl)ureido]-3-t-butyl-1H-pyrazol-1-yl)phenyl)acetic acid] registered an IC50 of 25 nM. Same read-out and setting: the same measure for `CC(C)(C)c1cc(NC(=O)Nc2ccc(Cl)cc2)n(-c2cccc(CN)c2)n1` [Example 287, 1-{1-[3-(aminomethyl)phenyl]-3-t-butyl-1H-pyrazol-5-yl}-3-(4-chloro-phenyl)urea]: 41 nM; for `CC(C)(C)c1cc(NC(=O)Nc2ccc3c(c2)OCO3)n(-c2cccc(CC(N)=O)c2)n1` [Example 297, 1-{1-[3-(2-amino-2-oxoethyl)phenyl]-3-t-butyl-1H-pyrazol-5-yl}-3-(benzo[d][1,3]dioxol-5-yl)urea]: 340 nM.

For `CC(C)(C)c1cc(NC(=O)Nc2ccc3c(c2)OCO3)n(-c2cccc(CN)c2)n1` [Example 288, 1-{1-[3-(aminomethyl)phenyl]-3-t-butyl-1H-pyrazol-5-yl}-3-(benzo-[d][1,3]dioxol-5-yl)urea], the IC50 amounted to 104 nM. Still for that read-out and setting: the same measure for `CCOC(=O)Cc1ccc(-n2nc(C(C)(C)C)cc2NC(=O)Nc2ccccc2F)cc1` [Example 201, 2-(4-(3-t-butyl-5-(3-(2-fluorophenyl)ureido)-1H-pyrazol-1-yl)-phenyl)acetate]: 29 nM.

In another assay the target is phosphorylated p-38-alpha kinase (Homo sapiens, UniProt Q16539). Briefly: P-38 alpha kinase assay P1. The conditions noted are these: Method P1; 2 h pre-incubation before ATP. Format: biochemical.
With `CC(C(N)=O)c1cccc(-n2nc(-c3ccsc3)cc2NC(=O)Nc2cccc(Cl)c2Cl)c1` (stereo not shown) [Example 453, 1-(1-(3-(1-amino-1-oxopropan-2-yl)phenyl)-3-(thiophen-3-yl)-1H-pyrazol-5-yl)-3-(2,3-dichlorophenyl)urea], the IC50 turned out to be 0.04 µM.
